# According to US20110112032A1, “Regulation of Brain Natriuretic Peptide and Catecholamines for the Treatment of Cardiovascular Diseases” (priority 2005, published 2011):
# Where two headings read alike, the source gives them in different places.
# Assays:
# [1] = test system: intrinsic cardiac adrenergic cells; conditions: for reduction of amplitude of [Ca2+]i transients of intrinsic cardiac adrenergic cells: n=8
# [2] = test system: myocytes co-cultured with intrinsic cardiac adrenergic cells; experiment: Effect of b1-adrenergic blockade on myocyte [Ca2+]i transients and beating rate in co-culture; type: cell-based, rat
# [3] = test system: intrinsic cardiac adrenergic cells; type: cell-based, rat
compound,measurement,setting,value
NC1=N[C@H](O)[C@H]2[C@H]3O[C@]4(O)O[C@@H]([C@@H](O)[C@@]2(N1)[C@@H]4O)[C@]3(O)CO [tetrodotoxin],spike frequency of [Ca2+]i transients of intrinsic cardiac adrenergic cells after administration,[1],0 spikes/min
CC(C)NCC(O)COc1ccc(CC(N)=O)cc1 (stereo not drawn) [Atenolol],decrease in beating rate of myocytes,[2]; 1 nM,16±7
same,reduction of amplitude of myocyte [Ca2+]i transients,[2]; 1 nM,19±9
same,decrease in beating rate of myocytes,[2]; 10 nM,26±8
same,reduction of amplitude of myocyte [Ca2+]i transients,[2]; 10 nM,37±4
same,decrease in beating rate of myocytes,[2]; 100 nM,57±11
same,reduction of amplitude of myocyte [Ca2+]i transients,[2]; 100 nM,49±8
same,reduction in the amplitude of [Ca2+]i transients of a myocyte,"[2]; 100 nM, single myocyte",40%
same,myocyte beating rate after administration,"[2]; 100 nM, single myocyte, from 66 beats/minute",7 beats/minute
same,effect on myocyte beating,[2]; 1 μM,stops the myocyte beating
same,decrease in beating rate of myocytes,[2]; 1000 nM,62±13
same,reduction of amplitude of myocyte [Ca2+]i transients,[2]; 1000 nM,75±10
same,frequency of [Ca2+]i transients of intrinsic cardiac adrenergic cells,[1]; 1000 nM,did not significantly increase
same,effect on [Ca2+]i transients of intrinsic cardiac adrenergic cells,[1]; concentration not given,not significantly affected
"COC(=O)C1=C(C)NC(C)=C(C(=O)OC)C1c1ccccc1[N+](=O)[O-] [Nifedipine, nifedipine]",reduction of amplitude of [Ca2+]i transients of intrinsic cardiac adrenergic cells,[1]; nifedipine 1 mM,54±8%
same,reduction of amplitude of [Ca2+]i transients of intrinsic cardiac adrenergic cells,[1]; nifedipine 10 mM,82±3%
[D-Pen^25]-enkephalin [DPDPE],activation of intrinsic cardiac adrenergic cells in the presence of protein kinase A inhibition,[1],failed to activate
same,effect on [Ca2+]i transients in intrinsic cardiac adrenergic cells,[1],increases
same,enhanced [Ca2+]i transients in the presence of δ-opioid receptor antagonist NPI,[1],failed to generate enhanced [Ca^2+]i transients
same,"excitatory action of DPDPE in the presence of Rp CAMP, a protein kinase A inhibitor",[1],is blocked
same,excitatory effect of DPDPE on [Ca2+]i transients following application of nifedipine,[1],completely abolished
same,increase in [Ca2+]i transients generated by intrinsic cardiac adrenergic cells,[1],5 fold
same,enhanced epinephrine release during recovery phase after removal,[3],persists
same,increase in epinephrine release from intrinsic cardiac adrenergic cells,[3],2.4 fold
